In ChEMBL document CHEMBL3638726, “Substituted indole compounds having NOS inhibitory activity” (2013) one finds IC50 data, which are given here for 2 compounds.

Protein sequences, listed by entry. Tags and fused reporters are not part of them.
UniProt Q8MI13, whole entry: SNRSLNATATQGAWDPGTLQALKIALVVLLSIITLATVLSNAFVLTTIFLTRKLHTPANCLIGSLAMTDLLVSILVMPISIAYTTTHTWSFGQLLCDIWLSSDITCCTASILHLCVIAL

For orientation: IC50 means the concentration needed to halve the response being measured. Higher therefore signals lower potency.

Each structure is given as a SMILES string.

The assay addresses 5-hydroxytryptamine 1D receptor (Bos taurus, UniProt Q8MI13). In words: Binding Assay: 5-HT1D binding assays (agonist radioligand)were performed using bovine caudate membranes according to the methods of Heuring and Peroutka (J. Neurosci 1987, 7: 894-903). 5-HT1B (rat cerebral cortex) binding assays (agonist radioligand) were performed according to the method of Hoyer et. al. (Eur. J. Pharmacol. […], 118: 1-12). The assay is classed as tissue-based.

Turning to `CN1CCC(c2c[nH]c3ccc(NC(=N)c4ccco4)cc23)CC1`, the IC50 is 280 nM.
To `CN(C)CCCc1c[nH]c2ccc(/N=C(\N)c3cccs3)cc12` belongs 870 nM.
